We go through ten compounds from patent publication US20070213394A1 (priority 2004, published 2007).

Chains of the proteins cited; added tags and fusions are not shown. Lines headed by an entry give the natural chain unless they say otherwise; changes in a name come on top.
UniProt P41145: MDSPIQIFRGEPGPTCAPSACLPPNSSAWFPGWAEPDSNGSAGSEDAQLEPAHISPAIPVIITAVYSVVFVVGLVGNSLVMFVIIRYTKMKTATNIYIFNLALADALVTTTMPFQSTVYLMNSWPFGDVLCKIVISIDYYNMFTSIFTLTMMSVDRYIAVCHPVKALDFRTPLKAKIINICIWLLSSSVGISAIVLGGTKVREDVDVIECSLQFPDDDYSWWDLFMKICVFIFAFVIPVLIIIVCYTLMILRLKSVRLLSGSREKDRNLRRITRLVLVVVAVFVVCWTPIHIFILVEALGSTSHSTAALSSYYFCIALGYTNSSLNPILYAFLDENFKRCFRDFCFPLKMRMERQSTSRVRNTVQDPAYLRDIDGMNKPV

For experiment [1], the target named is T1, human kappa opioid receptor (Homo sapiens, UniProt P41145).
T1 construct: expressed in transfected cells; host or cells: Chinese hamster ovary cells (CHO-hKOR), membranes
Kind of experiment: biochemical. Particulars: for Emax: 1 h, read-out: Efficacy.

Experiment [2] deals with T1, human kappa opioid receptor. Kind of experiment: biochemical. It counts as binding.

As to `COC(=O)[C@@H]1C[C@@H](OC(C)=O)C(=O)[C@H]2[C@@]1(C)CC[C@H]1C(=O)O[C@H](c3ccoc3)C[C@]21C` [2-episalvinorin A, 2-epi-salvinorin A], the Efficacy in experiment [1] is 102%.
Broadly, the Ki is a measure of affinity in units of concentration, obtained from inhibition or displacement. A low value points to higher affinity. Turning to `COC(=O)[C@@H]1C[C@@H](O)C(=O)C2[C@@]1(C)CC[C@H]1C(=O)O[C@H](c3ccoc3)C[C@]21C` (stereo partly drawn) [2-episalvinorin B, 2-epi-salvinorin B], in experiment [2], the Ki was above 10000 nM.
For orientation: EC50 means the concentration giving half of the maximal effect. In the case of `COC(=O)[C@@H]1C[C@H](O)C(=O)C2[C@@]1(C)CC[C@H]1C(=O)O[C@H](c3ccoc3)C[C@]21C` (some centres unmarked) [Compound 1, salvinorin B], the EC50 in experiment [1] was found to be 371 ± 49 nM. In experiment [2], this compound had an inhibition constant (Ki) of 155 ± 23 nM.
On to `CCCCO[C@H]1C[C@@H](C(=O)OC)[C@]2(C)CC[C@H]3C(=O)O[C@H](c4ccoc4)C[C@]3(C)C2C1=O` (some centres unmarked) [Compound 13, 2-n-butoxy-salvinorin B], for which the Emax in experiment [1] is 105%.
`COC(=O)[C@@H]1C[C@H](OCc2ccccc2)C(=O)C2[C@@]1(C)CC[C@H]1C(=O)O[C@H](c3ccoc3)C[C@]21C` (some centres unmarked) [Compound 17, 2-benzyloxy-salvinorin B]: the Emax in experiment [1] is 102%.
For `CCN[C@@H]1C[C@@H](C(=O)OC)[C@]2(C)CC[C@H]3C(=O)O[C@H](c4ccoc4)C[C@]3(C)C2C1=O` (some centres unmarked) [Compound 18, 2-(N-ethylamino)-salvinorin], the Emax in experiment [1] came out at 111%.
Same read-out and setting: as for `COC(=O)[C@@H]1C[C@@H](NC(C)C)C(=O)C2[C@@]1(C)CC[C@H]1C(=O)O[C@H](c3ccoc3)C[C@]21C` (stereo partly drawn) [Compound 75, 2-epi-(N-isopropyl)-salvinorin], the figure is 107%; as for `CCNC1CC(C(=O)OC)C2(C)CCC3C(=O)OC(c4ccoc4)CC3(C)C2C1=O` (centres unmarked) [Compound 209a, 2-(N-ethyl)-salvinorin], 104%; as for `COC(=O)C1CC(NC(C)=O)C(=O)C2C1(C)CCC1C(=O)OC(c3ccoc3)CC12C` (centres unmarked) [Compound 212a, 2-(acetamide)-salvinorin], 106%.
Regarding `COC(=O)C1CC(NC(C)=O)C(=O)C2C1(C)CCC1C(=O)OC(c3ccoc3)CC12C` (stereo not drawn) [Compound 212b, 2-epi-(acetamide)-salvinorin], in experiment [1], the Efficacy turned out to be 103%.
